# US9499599B2, “Composition and methods for stimulating gastrointestinal motility” (Ipsen Pharma S.A.S., priority 2005, dated 2016)
# Sequences of proteins named here, by UniProt entry; tags and fusion partners are left off.
# UniProt Q92847, whole entry: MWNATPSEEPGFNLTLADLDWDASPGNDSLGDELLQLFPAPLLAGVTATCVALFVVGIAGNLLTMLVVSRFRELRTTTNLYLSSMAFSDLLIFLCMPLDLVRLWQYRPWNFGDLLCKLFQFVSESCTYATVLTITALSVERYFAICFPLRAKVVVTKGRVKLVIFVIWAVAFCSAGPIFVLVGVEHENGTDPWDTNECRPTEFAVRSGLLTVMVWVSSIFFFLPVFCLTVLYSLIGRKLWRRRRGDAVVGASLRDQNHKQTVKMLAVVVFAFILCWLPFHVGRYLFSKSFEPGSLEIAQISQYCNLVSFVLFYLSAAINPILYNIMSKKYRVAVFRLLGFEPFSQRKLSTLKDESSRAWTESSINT
# Molecular target: T1, human recombinant GHS receptor (Homo sapiens, UniProt Q92847)
# T1 construct: The full length human GHS-R was subcloned into the mammalian expression vector pcDNA 3.1; expressed in transfected cells; membrane homogenates used
# Assay: GHS-receptor binding assay, (125I)ghrelin displacement
# [1] = 0.05 nM (125I)ghrelin, membranes of CHO-K1 cells expressing human recombinant GHS receptor, 60 min at 4° C.; read-out: Receptor Binding Ki
"Ki (read-out: Receptor Binding Ki; 0.05 nM (125I)ghrelin, membranes of CHO-K1 cells expressing human recombinant GHS receptor, 60 min at 4° C.) [nM]",Substance,Ki [1] [nM]
–,(Act^2)hGhrelin(1-28)-NH2 [Example #94],12.7
–,H-Inp-D-1-Nal-D-Trp-Taz-Lys-NH2 [Example #57],1.11
155,"Aib^2, Act^6)hGhrelin(1-28)-NH2 [Example #114]",–
–,H-Inp-D-1-Nal-D-Trp-Taz-Apc-NH2 [Example #60],1.19
–,H-Inp-D-2-Nal-D-Trp-Taz-NH2 [Example #90],6.17

# Like-named read-outs stand apart in the source and are kept apart here.
